# Source: US9505726B2, “Substituted biphenyl amides as P2X3 and P2X2/3 antagonists” (Roche Palo Alto LLC, priority 2009, dated 2016)
# Sequences of proteins named here, by UniProt entry; tags and fusion partners are left off.
# UniProt P49654, whole entry: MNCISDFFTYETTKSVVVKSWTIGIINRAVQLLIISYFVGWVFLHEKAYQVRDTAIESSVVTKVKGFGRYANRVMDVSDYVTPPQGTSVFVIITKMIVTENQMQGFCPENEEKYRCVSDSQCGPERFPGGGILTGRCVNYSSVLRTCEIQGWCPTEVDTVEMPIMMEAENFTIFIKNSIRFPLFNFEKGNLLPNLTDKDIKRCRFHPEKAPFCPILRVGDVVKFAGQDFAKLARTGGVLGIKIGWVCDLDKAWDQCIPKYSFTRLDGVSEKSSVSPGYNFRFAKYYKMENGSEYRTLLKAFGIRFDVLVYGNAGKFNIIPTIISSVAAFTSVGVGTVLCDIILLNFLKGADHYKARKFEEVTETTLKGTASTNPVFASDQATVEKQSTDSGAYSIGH
# Molecular target: rat P2X3 receptor (Rattus norvegicus, UniProt P49654)
# Test: P2X3 FLIPR (Fluorometric Imaging Plate Reader) assay
# Conditions: CHO-K1 cells transfected with cloned rat P2X3; agonist α,β-meATP 1 μM; Fluo-3 AM calcium fluorescence
row,Compound,P2X3 (pIC50 values for the P2X3 receptor)
1,Cc1ccc(-c2cc(C(=O)NCc3cnc(C)cn3)cc(N(C)C(=O)C3(C)COC3)c2)nc1,7.09
2,Cc1ccc(-c2cc(C(=O)NCc3cnc(C)cn3)cc(N(C)C(=O)C(C)C)c2)nc1,8.36
